Data published in PubChem BioAssay AID504842 (National Center for Advancing Translational Sciences (NCATS), 2011).
Only a part is listed here, and it is no random draw. Calls of active or inactive are those of the source. Calls come from the whole dose curve; as a rule, active = well fitted inhibition curve with a large enough effect; inconclusive = small, poorly fitted or top-dose-only effect; inactive = flat fitted curve, though single readings scatter.

Each molecule was assayed on Chaperonin Mm-Cpn (Methanococcus maripaludis) (assay: Inhibitors of TCP-1 ring complex (TRiC) of Methanococcus maripaludis (MmCpn): qHTS). Conditions: purified Mm-Cpn ATPase, ADP Transcreener TR-FRET; at 76.9 µM (top of the series).
Description: The eukaryotic chaperonin TRiC (for TCP-1 ring complex) is an essential and conserved chaperone required for the folding and activation of 10-15% of the proteins encoded by the human genome. […] The TRiC complex consist of two stacked 7-9 membered rings, each containing a central cavity. Substrates are folded within the cavity in an ATP-dependent manner. TRiC is a complex of eight different, essential proteins. As each of the genes encoding the eight subunits is essential for cell viability and no protocol has been developed to over-express this enzyme to high levels. That is why several groups studying the TRiC chaperonin have turned to the archaeal homolog of TRiC, Methanococcus maripaludis (Mm-CPN), and have used this enzyme as a model system for the study of the type II chaperonin family. Small molecule inhibitors of the Mm-CPN enzyme would be extremely useful to study the mechanism of chaperonin activity. Importantly, TRiC and Mm-CPN both require ATP hydrolysis for function. Furthermore, the ATP binding sites are highly conserved among these type II chaperonins. This provides us with an easy, well tested and straightforward assay to identify inhibitors of chaperonin activity. The Mm-CPN assay was developed in 1536-well plate format using the HTRF Transcreener ADP assay kit (Cisbio, Bedford, MA). This assay applied the time resolved fluorescence resonance energy transfer (TR-FRET) principle. ATP in the presence of Mm-CPN is converted to ADP + Pi. An antibody labeled with Eu3+-Cryptate specific and bound to ADP labeled with […] (d2) competes with the unlabeled ADP generated by Mm-CPN. The resulting TR-FRET signal is inversely proportional to the concentration of ADP in the sample. In this assay a reduction in TR-FRET signal is observed with ATP turnover. NIH Chemical Genomics Center [NCGC] NIH Molecular Libraries Probe Centers Network [MLPCN] MLPCN Grant: DA030554-01A1 Assay Submitter (PI): Judith Frydman, Stanford University
Purified Mm-CPN was supplied by the laboratory of Dr. Judith Frydman. Protein samples were stored at -80C as single use aliquots. Protein was thawed in ambient temperature water bath and placed on ice once thawed. Buffer was prepared fresh day of screen. The buffer composition below was used to prepare the working solution of the Mm-CPN protein and ATP substrate. The buffer is comprised of 30 mM TRIS pH 7.4, 100mM KCl, 5mM MgCl2, and 1mM DTT. A final concentration of 25nM Mm-CPN and 10uM ATP per well were used in the screen. Instructions according to the manufacturer were followed for the ADP Transcreener kit. Used 1536 well Greiner white, medium binding (MB), solid bottom plates. Plates were read on the PerkinElmer EnVision plate reader using Excitation = 320 nm and Emission = […], 665 nm. Protocol- 1.Dispense 1.5ul per well of working [Mm-CPN] = 50nM (or 75 ng / well) 2.Spin plate at 1000 rpm for 30 seconds 3.23nl of compound transferred per well 4.Incubate at 37degC for 10 minutes 5.Dispense 1.5ul per well of working [ATP] = 20uM 6.Incubate at 37degC for 30 minutes 7.Dispense 3ul per well of Anti-ADP Cryptate / ADP-d2 mix (prepared as instructed by Cisbio) 8.Incubate at ambient for 30 minutes 9.Read using EnVision
% is set by controls: 0 for no effect and ±100 for the full control effect.
Note: nearly all actives have a fitted effect of over 80% in size.

| Compound | activity, negative = inhibition |
| --- | --- |
| COc1ccccc1OP(C)(=O)Nc1ccc(Br)cc1 (stereo not given) | inactive: -0.492% |
| COc1ccc(OP(C)(=O)Nc2ccccn2)cc1 (stereo not given) | inactive: -1.38% |
| CN(C)CCOC(=O)C(O)(c1ccccc1)C1CCCC1 (stereo not given) | inactive: -0.837% |
| O=[N+]([O-])c1cc([N+](=O)[O-])c(Nc2ccccn2)c([N+](=O)[O-])c1 | inactive: -0.298% |
| Cc1c(NP(C)(=O)Oc2ccc(C(C)C)cc2)c(=O)n(-c2ccccc2)n1C (stereo not given) | inactive: 2.22% |
| COc1ccccc1OP(C)(=O)Nc1ccc(C)cc1C (stereo not given) | inactive: -3.45% |
| CP(=O)(Nc1ccccn1)Oc1ccccc1 (stereo not given) | inactive: -0.709% |
| CCc1ccc(OP(C)(=O)O)cc1 | inactive: -0.523% |
| Cc1cc(C)cc(OP(C)(=O)Nc2cccc(C(F)(F)F)c2)c1 (stereo not given) | inactive: -5.02% |
| COc1ccccc1OP(C)(=O)Nc1ccc(C)c(C)c1 (stereo not given) | inactive: -1.43% |
| COc1ccc(OP(C)(=O)Nc2ccccc2Br)cc1 (stereo not given) | inactive: 0.357% |
| Cc1nc2ccc3ccccc3c2o1.O=[N+]([O-])c1cc([N+](=O)[O-])c(O)c([N+](=O)[O-])c1 | inactive: 2.29% |
| CP(=O)(OCCOc1ccccc1)OCCOc1ccccc1 | inactive: -3.43% |
| CP(=O)(Nc1ccc(Cl)cc1Cl)Oc1ccccc1 (stereo not given) | inactive: -4.37% |
| CCOC(=O)c1ccc(NP(C)(=O)Oc2ccc(Cl)cc2)cc1 (stereo not given) | inactive: -9.84% |
| CP(=O)(OC12CC3CC(CC(C3)C1)C2)OC12CC3CC(CC(C3)C1)C2 | inactive: -1.04% |
| COc1ccc(OP(C)(=O)Nc2ccc(Br)cc2)cc1 (stereo not given) | inactive: 1.85% |
| CCN(CC)CC(O)COC(=O)C(O)(c1ccccc1)C1CCCCC1 (stereo not given) | inactive: 0.256% |
| O=C(OCCCN1CCCC1)C(O)(c1ccccc1)C1CCCCC1 (stereo not given) | inactive: -0.127% |
| COc1ccccc1OP(C)(=O)Nc1c(C)n(C)n(-c2ccccc2)c1=O (stereo not given) | inactive: -3.25% |
| CCc1ccc(OP(C)(=O)Nc2cccnc2)cc1 (stereo not given) | inactive: 0.389% |
| CP(=O)(Oc1ccccc1)N1CCOC1=O (stereo not given) | inactive: 0.102% |
| CC(C)(C)c1ccc(OP(C)(=O)O)cc1 | inactive: -2.28% |
| COc1ccccc1OP(C)(=O)Nc1ccccc1Br (stereo not given) | inactive: -9.46% |
| CP(=O)(Nc1ccc(Cl)cc1)Oc1ccc(F)cc1 (stereo not given) | inactive: 0.831% |
| CN(C)C(=O)c1c([N+](=O)[O-])cc([N+](=O)[O-])cc1[N+](=O)[O-] | inactive: -1.14% |
| CP(=O)(Nc1ccc(SC(F)(F)F)cc1)Oc1ccc(F)cc1 (stereo not given) | inactive: 1.64% |

| Compound | activity, negative = inhibition |
| --- | --- |
| CCOP(C)(=S)SCC(=O)NC(C)(CC)C(=O)O (stereo not given) | inactive: 0.993% |
| CP(=O)(Nc1ccc2c(c1)OCCO2)Oc1ccccc1 (stereo not given) | inactive: 1.45% |
| Cc1ccccc1NP(C)(=O)Nc1ccccc1C | inactive: -0.538% |
| COc1ccc(OP(C)(=O)Nc2cccc(Br)c2)cc1 (stereo not given) | inactive: -2.26% |
| CN(C)CCOC(=O)C(O)(c1ccccc1)C1CCCCC1 (stereo not given) | inactive: 0.014% |
| COc1ccc(NP(C)(=O)Oc2ccccc2OC)cc1 (stereo not given) | inactive: -0.337% |
| O=[N+]([O-])c1ccc(OP2(=O)COCCO2)cc1 (stereo not given) | inactive: -0.713% |
| Cc1cc(-c2cccc3ccccc23)c(C)cn1.O=[N+]([O-])c1cc([N+](=O)[O-])c(O)c([N+](=O)[O-])c1 | inactive: 1.01% |
| CCOC(=O)c1ccc(NP(C)(=O)Oc2ccc(F)cc2)cc1 (stereo not given) | inactive: 2.14% |
| COc1ccc(OP(C)(=O)Nc2ccc(SC(F)(F)F)cc2)cc1 (stereo not given) | inactive: 1.15% |
| CCN(CC)CCCOC(=O)C(O)(c1ccccc1)C1CCCCC1 (stereo not given) | inactive: 0.216% |
| CP(=O)(Nc1ccccc1)Oc1ccc(F)cc1 (stereo not given) | inactive: -0.33% |
| CCCCCOc1ccc(NP(C)(=O)Oc2ccc(Cl)cc2Cl)cc1 (stereo not given) | inactive: -8.37% |
| CP(=O)(Nc1ccccc1F)Oc1ccccc1 (stereo not given) | inactive: 0.025% |
| CC(C)c1ccc(OP(C)(=O)Nc2ccc(SC(F)(F)F)cc2)cc1 (stereo not given) | inactive: 1.49% |
| O=C(OCCN1CCN(CCOCc2ccccc2)CC1)C(O)(c1ccccc1)c1ccccc1 | inactive: -0.838% |
| COc1ccccc1OP(C)(=O)Nc1cccc(Br)c1 (stereo not given) | inactive: -0.645% |
| CCOC(=O)c1ccc(NP(C)(=O)Oc2cc(C)cc(C)c2)cc1 (stereo not given) | inactive: 0.256% |
| Cc1cc(C)cc(OP(C)(=O)Nc2ccc(C)cc2C)c1 (stereo not given) | inactive: -1.71% |
| Cc1ccc(C)c(NP(C)(=O)Oc2ccccc2)c1 (stereo not given) | inactive: 2.02% |
| CP(=O)(Nc1cccc(Br)c1)Oc1ccccc1 (stereo not given) | inactive: -0.492% |
| Cc1cc(C)cc(OP(C)(=O)Nc2ccccn2)c1 (stereo not given) | inactive: -2.21% |
| CC1=NCCc2c1[nH]c1ccccc21.O=[N+]([O-])c1cc([N+](=O)[O-])c(O)c([N+](=O)[O-])c1 | inactive: -5.43% |
| O=[N+]([O-])c1cc([N+](=O)[O-])c(Nc2nnnn2CCO)c([N+](=O)[O-])c1 | inactive: -0.351% |
| CC1=C2N=C(C=C3N=C(C(C)=C4[N-][C@@](C)([C@@H]5N=C1[C@](C)(CCC(=O)NC[C@@H](C)OP(=O)([O-])O[C@H]1[C@@H](O)[C@@H](n6cnc7cc(C)c(C)cc76)O[C@@H]1CO)[C@H]5CC(N)=O)[C@@](C)(CC(N)=O)[C@@H]4CCC(N)=O)[C@@](C)(CC(N)=O)[C@@H]3CCC(N)=O)C(C)(C)[C@@H]2CCC(N)=O.[C-]#N.[Co+3] | inactive: -1.17% |
| CN1CCCCC1COC(=O)C1(O)c2ccccc2CCc2ccccc21 (stereo not given) | inactive: 0.6% |
| COc1ccccc1OP(C)(=O)Nc1c(C)cccc1C (stereo not given) | inactive: 0.423% |

| Compound | activity, negative = inhibition |
| --- | --- |
| CP(=O)(Nc1ccc(SC(F)(F)F)cc1)Oc1ccccc1 (stereo not given) | inactive: 1.39% |
| CCCOc1ccc(NP(C)(=O)Oc2ccc(Cl)cc2)cc1 (stereo not given) | inactive: -1.97% |
| O=[N+]([O-])c1cc([N+](=O)[O-])c(-n2nnc3ccccc32)c([N+](=O)[O-])c1 | inactive: -4.38% |
| Cc1nc2ccc3ccccc3c2s1.O=[N+]([O-])c1cc([N+](=O)[O-])c(O)c([N+](=O)[O-])c1 | inactive: 0.299% |
| CP(=O)(Oc1ccccc1)OC(c1ccccc1)C(F)(F)F (stereo not given) | inactive: -0.547% |
| CP(=O)(Nc1ccc(SC(F)(F)F)cc1)Oc1ccc(Cl)cc1 (stereo not given) | inactive: 0.308% |
| Cc1cccc(C)c1OP(C)(=O)Nc1ccc(SC(F)(F)F)cc1 (stereo not given) | inactive: 0.372% |
| Cc1cc(C)cc(OP(C)(=O)Nc2ccc(SC(F)(F)F)cc2)c1 (stereo not given) | inactive: -1.3% |
| CCc1ccc(OP(C)(=O)N2CCN(c3ccc([N+](=O)[O-])cc3)CC2)cc1 (stereo not given) | inactive: -0.428% |
| CP(=O)(NC(=O)Nc1ccccc1)Oc1ccccc1 (stereo not given) | inactive: -1.81% |
| CCOC(=O)c1ccc(NP(C)(=O)Oc2ccc(OC)cc2)cc1 (stereo not given) | inactive: -0.265% |
| CCOP(C)(=S)SCC(=O)NC(C)C(=O)O (stereo not given) | inactive: -0.405% |
| CP(=S)(Nn1cnnc1)Oc1ccccc1 (stereo not given) | inactive: 0.587% |
| CP(=O)(Nc1ccccc1Br)Oc1ccccc1 (stereo not given) | inactive: -0.193% |
| COc1ccccc1OP(C)(=O)Nc1ccccc1 (stereo not given) | inactive: -1.09% |
| O=[N+]([O-])c1cc([N+](=O)[O-])c(Nc2cccnc2)c([N+](=O)[O-])c1 | inactive: -0.199% |
| O=[N+]([O-])c1ccc2c(c1)C=Nc1ccccc1O2 | inactive: -0.0106% |
| Cc1cccc(C)c1OP(C)(N)=O (stereo not given) | inactive: 1.94% |
| CC(C)(C)c1ccc(OP(C)(=O)Nc2ccc(SC(F)(F)F)cc2)cc1 (stereo not given) | inactive: -2.57% |
| Cc1ccc(NP(C)(=O)Oc2ccccc2)c(C)c1 (stereo not given) | inactive: -0.453% |
| COc1ccccc1OP(C)(=O)Nc1ccc(C)cc1 (stereo not given) | inactive: 1.27% |
| CCOC(=O)c1ccc(NP(C)(=O)Oc2ccccc2)cc1 (stereo not given) | inactive: -0.774% |
| Cc1cc(C)cc(OP(C)(N)=O)c1 (stereo not given) | inactive: -3.27% |
| COc1ccc(OP(C)(=O)Nc2cccc(F)c2)cc1 (stereo not given) | inactive: -0.713% |
| COc1ccccc1OP(C)(=O)Nc1cc(Cl)ccc1C (stereo not given) | inactive: 0.173% |
| CCN(CC)CCCOC(=O)C(O)(c1ccccc1)c1ccccc1 | inactive: -2.46% |
